## Binding of CDR-mutated scFvs to a peptide of the spike HR2 region

Target: peptide PDVDLGDISGINAS, taken from heptad repeat 2 (HR2) of SARS-CoV-2 spike.

The variants keep the heavy chain, the linker and the frameworks of Ab-14 (scFv order VH, a (GGGGS)3 linker, VL).
VH: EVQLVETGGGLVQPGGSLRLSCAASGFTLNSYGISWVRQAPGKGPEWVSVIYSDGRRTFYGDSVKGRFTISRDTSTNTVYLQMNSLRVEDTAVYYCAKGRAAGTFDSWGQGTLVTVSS
VL: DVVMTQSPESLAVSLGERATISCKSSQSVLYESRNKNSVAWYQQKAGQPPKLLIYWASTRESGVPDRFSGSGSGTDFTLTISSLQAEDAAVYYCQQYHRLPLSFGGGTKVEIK

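These sequences belong to a second round, designed from the earlier measurements on random variants of the parent. Several design methods are mixed in this list. The assay is AlphaSeq: two haploid yeast populations carry antibody and antigen on their surface. Pairs that bind mate more often; barcode pairs of the diploids are counted by sequencing. Each replicate has its own calibration line, from reference interactions of the BCL2 family. Each pool was mated in six replicate cultures.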

Each variant is given by its three light chain CDRs, as the data file delimits them; those of the parent are KSSQSVLYESRNKNSVA, WASTRES, QQYHRLPLS.
Affinities are written as log10 Kd with Kd in nM; a lower number is a better binder.
A mean of the replicates is given; it leaves out those without a signal.
Where no diploid with the target was found in any replicate, the entry reads "not detected": below detection, most likely a poor binder, though not proof of it.
The parent sequence was in this pool as ten entries: three were never detected, three once, and four in most replicates, with averages from 0.34 to 2.37.
Values of this round are not directly comparable with the first-round values of the same sequences.
Background: pairings of all light chain designs with three empty control strains gave a value in 4% of cases (median 2.64, 5th percentile 1.59). Values in that range, when seen in few replicates, are hard to tell from nonspecific mating.
In the paper, a design with two or fewer of six values counts as a poor binder.

CDR-L1,CDR-L2,CDR-L3,"log10 Kd (nM), mean",replicates with signal
KSSQSVLYESRRKNSVA,NASTRES,QRYHRLPLS,3.35,4 of 6
HSSPSVEYESRNKNSVA,NASTREQ,QQYHRLPLS,0.67,6 of 6
KSSQSCLYESRNKNSVA,WAMTRES,QQYDRLPLS,not detected,0 of 6
KVSISVLLESRNKNSVA,EASTRES,QQYHRLPLS,0.27,6 of 6
KVSQSVLWEMSNKNSVA,WASTRES,QQYHRLELS,1.33,3 of 6
KLFDELSSEQVNARNVA,DALATHE,QQYVMLPLS,0.55,6 of 6
IVSQLMLWGMHVKNSIA,EAETRIN,QQYDRLPLF,1.75,5 of 6
KLSQSMDYESRNKNSVA,EASDRLS,QDYHRLPLS,0.28,6 of 6
KVQQSVLYEGRNKNSVA,HASTRED,QQYHRLPLS,0.04,6 of 6
MSSQSVLYESRNKNSVA,WASTRES,QQYHRLPLL,not detected,0 of 6
IISQVDAYESRNKQSIA,DQSTRGS,QQYDRLPLS,0.57,6 of 6
IVSQLMLWGLHAKNSIA,EAETRGN,QQYDRLPLF,1.57,1 of 6
KSSQSVDYESRNKNSVA,TASTRES,SQYHRLPLS,2.18,1 of 6
KIGMTLNTLMHQVNNVA,DLVNREN,QQYFRLPLS,-0.04,6 of 6
KLSQSVLYESRDKNSVA,DASTRES,QQYHRLPLS,0.01,6 of 6
HISQMVMYGSCNKNNVA,QVSLRME,QQYHRLPLS,2.40,4 of 6
SMYPFDVAIGKGTQNVA,HVSVRAS,QQYDRLPLV,0.97,6 of 6
KIMQSQLGESRNVNSVA,NASTRLS,QQYHRLPLS,0.81,6 of 6
KLQQSNLYESRNTNSVA,QASQREQ,QQYHRLPLS,0.03,6 of 6
VLQQSVLYESRNKNSVA,DASKREE,QQYHRLPLS,-0.08,6 of 6
KSSQSVLYESRNKNSVA,WASTRED,QRYHRLPLS,not detected,0 of 6
ISVQSWLYESRNKNSVA,GASTRWS,QQYHGLPLT,1.77,2 of 6
KSSQSYHYESRNKKSVA,GASTRES,QQYHRLPLS,0.64,6 of 6
KLSQSVLMESRMVNNVA,EASQRES,QQYHRLPLS,-0.22,6 of 6
KSSQSVLYLSRNKNSVA,SASTRES,QDKHSLPLS,1.14,5 of 6
KSSQSVYYEKRNKNSVA,WASTRES,QQYHRLPLS,not detected,0 of 6
MISQLINMGSFAINSVA,QASIRCN,QQYDRLPLT,1.73,2 of 6

Continued, with the values leading:

"log10 Kd (nM), mean",replicates with signal,CDR-L1,CDR-L2,CDR-L3
0.60,6 of 6,ILEENADDITEIGNSIA,ETNMVRS,QQYHRLPLA
2.34,2 of 6,KSSQSVLYESQNKNSVA,WASTRES,QQYHRDPLS
0.38,6 of 6,MMGMTKTMQSNEIGNVA,DMNERFA,QQYFQLPLS
2.10,6 of 6,NISTQIPEFEMWDNNIA,GATLRPT,QHYARLPLS
1.30,6 of 6,KLTMISGLEKVSGNNVA,EMETRER,QQYNRLPLS
not detected,0 of 6,RSSQSTLYESRNENSVA,WASTRES,QQYHRLPLS
0.57,6 of 6,KISQSILFMSGNNNAIA,QMEMREE,QQYHRLPLS
2.17,5 of 6,HLGLATMLEEQVRNSVA,NNSTRED,QQYDRLPLS
-0.19,6 of 6,KVSPSELYESRNKNSVA,EASTRES,QQYHRLPLS
2.13,6 of 6,TLVQSVMGSSRTKNSVA,NAETRES,QHYHRLPLS
2.36,6 of 6,KSSQSVLYESRDKNSVA,WASTREV,QQYHILPLS
-0.33,6 of 6,KLPQSVLYESRNKNSVA,EASTRSS,QQYHRLPLS
1.29,4 of 6,HISIKLPGNWYMMDSVA,HSELRAE,QQYARLPLG
0.99,6 of 6,HISMMVGTKGYNKNSVA,NAQTRED,QQYHRLPLS
0.08,6 of 6,KSQQQYCYGDRNKNSVA,NASQRED,QQYHRLPLS
0.32,6 of 6,KFYGSHLYESRMENSVA,NASQRES,QQYHRLPLS
0.34,6 of 6,MMSQVTGMESKQRNNVA,QTSTREA,QQYDRLPLI
-0.13,6 of 6,KLSQSVLYESRNKNSVA,EASTRCQ,QQYHRLPLS
0.08,6 of 6,KLSQQWMQQWRNKNSVA,NASTRES,QQYHRLPLS
0.42,5 of 6,KIGTTLNQLLHQKNNVA,DLVMREN,QQYHRLPLS
-0.48,6 of 6,KVSQSVLYESRNKNSVA,SASTRES,TQYHVLPLS
1.00,6 of 6,KITQMVTGEQHNKNSIA,QMTTREG,QQYHRLPLS
1.56,6 of 6,KSSQSAPYESANKNSVA,WASTRES,QQYHRLPLS
2.20,5 of 6,HVSEMIFAQMKQRNSVA,ENNTREA,QQYDRLPLS
2.67,2 of 6,KSSQSVLYKERNKNSVA,RASTRES,QQYHRLPLS
2.14,6 of 6,KQSQSVLYESRNKNSVA,QASTRES,QQYHRLPLD
0.42,6 of 6,KLRQSQLYESRNKNSVA,NASQRES,QQYHRLPLS

The measurements come from Li et al. 2023 (doi:10.1038/s41467-023-39022-2) through the FLAb antibody collection.